# Where two headings read alike, the source gives them in different places.
# The chains behind the UniProt entries cited, without tags or fusion partners. Where a name states a change or a piece, a line headed by the entry shows the natural chain unless it says otherwise. Residues count along the entry.
# UniProt Q12809: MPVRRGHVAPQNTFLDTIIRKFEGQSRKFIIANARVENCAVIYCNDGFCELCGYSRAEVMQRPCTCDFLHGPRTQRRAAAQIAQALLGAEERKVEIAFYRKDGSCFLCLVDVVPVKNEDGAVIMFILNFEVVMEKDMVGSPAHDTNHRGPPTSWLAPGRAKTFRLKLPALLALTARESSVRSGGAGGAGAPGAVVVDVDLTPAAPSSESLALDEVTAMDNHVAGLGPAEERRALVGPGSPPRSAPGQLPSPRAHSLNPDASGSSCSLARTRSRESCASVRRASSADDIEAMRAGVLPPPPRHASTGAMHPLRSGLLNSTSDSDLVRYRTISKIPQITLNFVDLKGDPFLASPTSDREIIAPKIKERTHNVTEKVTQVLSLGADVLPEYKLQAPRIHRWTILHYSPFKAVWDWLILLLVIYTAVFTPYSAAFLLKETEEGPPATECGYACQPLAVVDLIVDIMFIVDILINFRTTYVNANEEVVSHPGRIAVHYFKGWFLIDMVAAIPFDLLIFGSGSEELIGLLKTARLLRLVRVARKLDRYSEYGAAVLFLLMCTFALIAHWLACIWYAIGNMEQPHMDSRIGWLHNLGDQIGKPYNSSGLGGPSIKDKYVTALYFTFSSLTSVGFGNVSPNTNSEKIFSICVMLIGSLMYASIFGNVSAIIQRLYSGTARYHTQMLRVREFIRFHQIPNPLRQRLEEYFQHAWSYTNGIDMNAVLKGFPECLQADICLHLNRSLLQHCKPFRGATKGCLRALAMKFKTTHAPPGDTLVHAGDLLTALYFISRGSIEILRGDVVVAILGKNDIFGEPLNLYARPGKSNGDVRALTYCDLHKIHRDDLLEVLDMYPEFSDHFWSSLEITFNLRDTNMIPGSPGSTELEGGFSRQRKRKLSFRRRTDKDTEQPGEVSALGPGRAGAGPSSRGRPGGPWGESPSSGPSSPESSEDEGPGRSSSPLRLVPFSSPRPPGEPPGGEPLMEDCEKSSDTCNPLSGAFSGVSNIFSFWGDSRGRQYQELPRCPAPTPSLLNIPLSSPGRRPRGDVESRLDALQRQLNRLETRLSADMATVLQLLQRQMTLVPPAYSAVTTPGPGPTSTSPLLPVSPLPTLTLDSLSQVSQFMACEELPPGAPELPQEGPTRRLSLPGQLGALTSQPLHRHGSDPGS
# UniProt Q00960, 27-1482: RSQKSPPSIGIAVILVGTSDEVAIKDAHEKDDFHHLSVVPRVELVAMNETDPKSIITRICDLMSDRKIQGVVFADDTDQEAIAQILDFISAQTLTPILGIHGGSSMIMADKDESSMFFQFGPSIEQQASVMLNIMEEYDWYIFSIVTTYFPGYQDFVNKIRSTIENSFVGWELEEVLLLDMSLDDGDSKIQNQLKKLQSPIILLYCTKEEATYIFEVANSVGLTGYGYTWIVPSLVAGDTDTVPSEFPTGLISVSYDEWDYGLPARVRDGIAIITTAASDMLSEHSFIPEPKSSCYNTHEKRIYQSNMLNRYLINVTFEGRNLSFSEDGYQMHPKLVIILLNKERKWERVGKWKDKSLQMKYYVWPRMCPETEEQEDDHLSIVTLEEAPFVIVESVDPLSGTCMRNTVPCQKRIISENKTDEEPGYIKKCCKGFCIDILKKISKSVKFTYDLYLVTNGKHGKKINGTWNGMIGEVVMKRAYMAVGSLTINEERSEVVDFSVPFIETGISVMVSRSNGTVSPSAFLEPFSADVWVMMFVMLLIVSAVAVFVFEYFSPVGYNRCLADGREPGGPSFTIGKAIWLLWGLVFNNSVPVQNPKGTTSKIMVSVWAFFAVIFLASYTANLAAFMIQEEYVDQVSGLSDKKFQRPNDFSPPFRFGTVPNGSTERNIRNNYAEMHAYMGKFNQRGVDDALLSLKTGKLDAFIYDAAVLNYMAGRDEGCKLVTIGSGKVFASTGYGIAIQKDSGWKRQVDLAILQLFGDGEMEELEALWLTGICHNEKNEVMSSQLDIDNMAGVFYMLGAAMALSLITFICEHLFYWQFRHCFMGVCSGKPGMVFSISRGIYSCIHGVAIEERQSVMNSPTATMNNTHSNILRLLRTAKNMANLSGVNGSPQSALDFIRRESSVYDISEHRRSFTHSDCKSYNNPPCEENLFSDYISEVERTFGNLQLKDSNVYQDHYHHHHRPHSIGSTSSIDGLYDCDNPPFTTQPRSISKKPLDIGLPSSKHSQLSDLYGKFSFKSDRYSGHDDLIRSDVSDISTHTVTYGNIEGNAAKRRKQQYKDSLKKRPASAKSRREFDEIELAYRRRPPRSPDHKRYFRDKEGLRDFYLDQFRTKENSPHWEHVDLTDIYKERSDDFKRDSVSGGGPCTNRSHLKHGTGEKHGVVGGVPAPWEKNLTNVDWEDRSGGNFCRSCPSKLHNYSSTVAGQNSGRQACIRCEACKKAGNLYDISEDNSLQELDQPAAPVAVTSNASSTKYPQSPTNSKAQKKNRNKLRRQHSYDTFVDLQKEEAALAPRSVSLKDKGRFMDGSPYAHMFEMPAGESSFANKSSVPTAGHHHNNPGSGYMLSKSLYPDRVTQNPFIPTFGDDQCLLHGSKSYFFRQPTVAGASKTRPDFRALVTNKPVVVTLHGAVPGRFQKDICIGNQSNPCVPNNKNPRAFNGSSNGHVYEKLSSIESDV
# Tests used:
# [1] = biological target: hERG receptor (Homo sapiens (Human), UniProt Q12809); assay: HERGBD: inhibition of specific [3H]-Dofetilide binding to the hERG receptor
# Description: Inhibition of Specific Binding to the hERG—Receptor (HERGBD)
# A HEK cell line with stable transfected human ERG receptor was used for the assay. The cells were grown adherently and maintained in DULBECCOS' MEM medium with 10% FBS, 1% non-essential amino acids, 1% Penicillin/Streptomycin and 400 μg/ml G418 (Calbiochem).
# For binding assays and membrane preparations the cell culture medium was removed, cells were washed with PBS. Crude membranes for radioligand binding experiments were prepared by scraping the cells off the dishes in ice cold 20 mM HEPES/0.1 mM KCl/pH 7.2. The cell suspension was homogenized on ice (Ultra turrax, 3×20 sec.) and the homogenate was spun for 10 min (1° C., 1000 g, OPTIMA, SW28, 2800 U/min). The supernatant was than centrifuged for 40 min at 100000 g (1° C., OPTIMA, SW28, 23000 U/min). The membrane pellet was re-suspended in 20 mM HEPES/0.1 mM KCl pH 7.2, frozen and stored at −80° C.
# After thawing on the day of the assay, the membrane suspension was diluted further with 20 mM HEPES/0.1 mM KCl/pH 7.2.
# The incubation mixture of 200 μl contained 1.5 nmol/l 3H-Dofetilide, optimized amount of membrane preparation, 20 mM HEPES/0.1 mM KCl/(pH 7.2) and inhibitor in 1% DMSO. Nonspecific binding was estimated in the presence of […] Dofetilide. The samples were incubated for 90 min. at RT.
# Binding was terminated by filtration of the incubated membrane preparations using Filtermat B (Pharmacia, Uppsala Sweden) and a Micro Cell Harvester (Skatron, Lier, Norway). The Filtermat B had been presoaked with 1% polyethylen imine and carefully washed with 0.05 M Tris/HCl-buffer pH=7.7 after the filtration to separate free and bound radioactivity. The filters were counted in a scintillation counter (Betaplate 1205, Berthold, Wildbad, Germany) in order to determine the specific binding of [^3H]-Dofetilide.
# The optimal amount of membrane preparation in the assay was determined and optimized for each membrane preparation separately in front of using the membranes in compound testing.
# For pipetting of the incubation mixture we routinely use the robot Biomek2000 (Fa. Beckman).
# [2] = biological target: rat NR1/NR2B receptor (Rattus norvegicus (Rat), UniProt P35439+Q00960); assay: NR2B binding assay: inhibition of specific [3H]-Ifenprodil binding to the rat NR1/NR2B receptor; settings: rat brain membranes
# Description: Biological Assays Inhibition of Specific Binding to the Rat NR1/NR2B Receptor
# Male Wistar rats (180 to 200 g) were killed by suffocation in a CO2 chamber for two minutes. Whole brains without cerebellum were removed and dissected on ice, placed into closed vials and stored at −70° C.
# Membrane fractions were prepared and tested using standard techniques. At the time of the assay, 1 g of the brains was placed into 25 ml of 50 mM Tris/10 mM EDTA buffer, pH 7.1, (25 vol. per g of original tissue) and homogenized for 30 sec at 20000 rpm with an Ultraturrax T25 (Jahnke & Kunkel, IKA-Labortechnik, Staufen, Germany).
# The supernatant was discarded and the pellet was homogenized on ice for 30 sec at 20000 rpm with an Ultraturrax and again centrifuged at 48000 g for 30 minutes at 4° C. […]
# The incubation was terminated by filtration of the membrane preparations using Filtermat B (Pharmacia, Uppsala Sweden) and a Micro Cell Harvester (Skatron, Lier, Norway). The Filtermat B had been presoaked with 1% polyethylene imine and carefully washed with 50 mM Tris/HCl-buffer pH 7.7 after the filtration to separate free and bound radioactivity.
# The optimal amount of membrane preparation in the assay was determined and optimized for each membrane preparation separately before the test. […]
# [3] = [3H]-Dofetilide binding, membranes of HEK cells with human ERG receptor, read-out: IC50
smiles,measurement,setting,value
"Cc1n[nH]c(C)c1CCn1cc(-c2ccc(Cl)c(OC(F)F)c2)cn1 [Example 1, 4-[2-[4-[4-chloro-3-(difluoromethoxy)phenyl]pyrazol-1-yl]ethyl]-3,5-dimethyl-1H-pyrazole]",IC50,[1]; [3],12.8 µM
"CCn1cncc1Cn1cc(-c2ccc(F)c(C)c2)cn1 [Example 96, 4-(4-fluoro-3-methylphenyl)-1-((1-ethyl-1H-imidazol-5-yl)methyl)-1H-pyrazole]",IC50,[1],7.96 µM
"Cc1cc(Cn2cc(-c3ccc(Cl)c(C)c3)cn2)n(C)n1 [Example 57, 5-[[4-(4-chloro-3-methyl-phenyl)pyrazol-1-yl]methyl]-1,3-dimethyl-pyrazole Succinate]",IC50,[1],126 µM
"FC(F)c1cc(Cl)cc(-c2cnn(Cc3cc[nH]n3)c2)c1 [Example 28, 4-[3-chloro-5-(difluoromethyl)phenyl]-1-(1H-pyrazol-3-ylmethyl)pyrazole]",IC50,[1]; [3],54.6 µM
"Cc1n[nH]c(C)c1CCn1cc(-c2ccc(Cl)c(C(F)F)c2)cn1 [Example 27, 4-[2-[4-[4-Chloro-3-(difluoromethyl)phenyl]pyrazol-1-yl]ethyl]-3,5-dimethyl-1H-pyrazole]",IC50,[1],35.1 µM
"Cc1cc(Cn2cc(-c3ccc(Cl)cc3Cl)cn2)n(C)n1 [Example 65, 5-[[4-(2,4-dichlorophenyl)pyrazol-1-yl]methyl]-1,3-dimethyl-pyrazole]",IC50,[1],40.4 µM
FC(F)Oc1cc(-c2cnn(Cc3cc[nH]n3)c2)ccc1Cl [Example 6],IC50,[2],0.00521 µM
same,IC50,[1],9.56 µM
"Cc1cc(Cn2cc(-c3cccc(OC(F)(F)F)c3)cn2)n(C)n1 [Example 22, 1,3-dimethyl-5-[[4-[3-(trifluoromethoxy)phenyl]pyrazol-1-yl]methyl] pyrazole Succinate]",IC50,[1],22.6 µM

# Reference: patent US10155727B2, “Pyrazoles” (Janssen Pharmaceuticals, Inc., priority 2014, dated 2018)
